Reference: ChEMBL document CHEMBL1772943, “Potent, selective, and orally available benzoisothiazolone phosphomannose isomerase inhibitors as probes for congenital disorder of glycosylation Ia” (J Med Chem, 2011)

Species on record: Homo sapiens
Test: Selectivity ratio of IC50 for human purified PMM2 to IC50 for human purified phosphomannose isomerase

Cc1ccc(C)c(-n2sc3cc(F)ccc3c2=O)c1
Ratio IC50: 7
